# AlphaSeq binding of Ab-14 light chain variants to a spike HR2 peptide

The measurements come from Li et al. 2023 (doi:10.1038/s41467-023-39022-2) through the FLAb antibody collection.

Target peptide (SARS-CoV-2 spike, HR2 region): PDVDLGDISGINAS

Parent: Ab-14, a human scFv built as VH, three GGGGS repeats, VL. Only the CDRs of the light chain vary.
VH: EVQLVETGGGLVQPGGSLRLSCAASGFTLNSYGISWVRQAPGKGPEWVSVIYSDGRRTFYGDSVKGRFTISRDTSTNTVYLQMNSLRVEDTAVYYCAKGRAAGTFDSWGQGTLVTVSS
VL: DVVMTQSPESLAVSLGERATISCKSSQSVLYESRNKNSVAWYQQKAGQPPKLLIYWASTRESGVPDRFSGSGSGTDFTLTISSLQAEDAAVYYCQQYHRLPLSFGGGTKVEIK

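The parent was found by panning a naive human phage display library on the peptide. This is the validation round: designs drawn from the data on random variants, tested in the same kind of assay. Group labels follow the data file (En: ensemble of fine-tuned language models; GP: Gaussian process model; HC: hill climbing; Gen: genetic algorithm; Gibbs: Gibbs sampling; a sequence that several methods proposed may carry one label only). AlphaSeq pools MATa yeast showing the antibodies with MATalpha yeast showing the peptide. Mating (16 h, 30 °C) was followed by selection of diploids and sequencing of their barcodes. Scores were corrected for input abundance and mapped to Kd with protein pairs of known affinity run in the same pool. Mating was done six times.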

The parent's light chain CDRs are KSSQSVLYESRNKNSVA, WASTRES, QQYHRLPLS; each variant's own CDRs replace them letter for letter. Variants here have more than six changes. Values are apparent Kd, the geometric mean of the replicates that gave a signal; lower means stronger binding. A pair that was not seen in any replicate is written "no signal"; this usually means weak binding, but a binder can also be missed. Empty control strains, which show no peptide, gave a signal in 4% of pairings with all light chain designs; the median was 430 nM and 95% of these signals were weaker than 38 nM. No background was subtracted. The control count says in how many pairings with the empty strains this scFv gave a signal. In the paper, a design with two or fewer of six values counts as a poor binder. The parent sequence was in this pool as ten entries: three were never detected, three once, and four in most replicates, with averages from 2.2 nM to 240 nM. A sequence measured in both rounds can read differently, since the two assays cover different ranges.

CDR-L1	CDR-L2	CDR-L3	group	apparent Kd	replicates with signal	empty controls
VLGGQWGLGTTQNSSVA	NVSETML	QQYWRLPLM	En_Gibbs	6.9 nM	6/6	1/18
MFSQSVMYGSFARNSVA	QTSTRES	QQYDRLPLS	En_HC	9.7 nM	6/6	2/18
KLYYHEVGLVNGQNSIA	EQDQLTF	QQYSHLPLS	En_Gibbs	57 nM	2/6	1/18
KWSWSWLLESRVWNSVA	NASLRES	QQYHRLPLS	GP_Gibbs	no signal	0/6	0/18
RITYAAEQLQRIDSSVA	AGSARCR	QQYYRLPLS	En_Gibbs	7.3 nM	6/6	0/18
MIYAANMELGRATNSIA	DNVTRYD	QQYERLPLS	En_Gen	350 nM	6/6	1/18
KIMQSLNYEQFSVSNVA	GQETRER	QSYHRLPLS	En_HC	87 nM	6/6	1/18
KLMLSLGESKQSERNIA	NMRVSVA	QQYDHLPLT	En_Gibbs	7.8 nM	6/6	0/18
KIQMNEGTLMEQINSIA	NSEVIVQ	QSYFRLPLS	En_Gibbs	31 nM	6/6	0/18
KLSGSMLYQSRNSNAVA	EASQREQ	QQYHRLPLS	GP_Gibbs	610 pM	6/6	5/18
TLMFDGEYSDKENYAIA	DAIHAQV	QQYVRLPLS	En_Gibbs	6.8 nM	6/6	2/18
KLSWTCTGDLNQMHSVA	ESTVAVD	QQYAHLPLS	En_Gibbs	5.0 nM	6/6	3/18
HISQSVGMTSRNKNSVA	ENSTREM	QQYDRLPLS	En_HC	56 nM	5/6	0/18
TISMSMNWLTRNKNSIA	EESTRED	QQYDRLPLS	En_HC	8.9 nM	6/6	0/18
KLQNSYEYESRMKNSVA	NASTRLE	QQYHRLPLS	GP_Gibbs	910 pM	6/6	1/18
KFSQSNLYEDRMQNNVA	NASQREQ	QDYHRLPLS	GP_Gibbs	5.2 nM	6/6	1/18
KLYFNVGTLAHNTQSIA	DMERRED	QQYHRLPLS	En_HC	1.0 nM	6/6	1/18
KVMQSHWGESRNKNSVA	HASLREV	QQYHRLPLS	GP_Gibbs	7.7 nM	6/6	2/18
SLAFTLHFGQSGGSNVA	EVQMREQ	QQYFRLPLG	En_Gibbs	190 nM	1/6	0/18
IISESMLYESATHNSIA	QTSTREE	QQYHHLPLI	En_HC	6.4 nM	6/6	0/18
KVSEISHFESKKKNSVA	ENSTREE	QQYDHLPLS	En_HC	27 nM	6/6	0/18
KLSQSVRMEEFVKDNVA	ENSTREA	QDYHRLPLS	En_HC	no signal	0/6	0/18
KIGMTLNQLMHKKNNVA	DLVERED	QQYHRLPLS	En_Gen	2.6 nM	6/6	0/18
IIPQSWLGEWRNKNSVA	DASQRES	QQYHRLPLS	GP_Gibbs	510 pM	6/6	0/18
KLMPSKEYESRMKNSVA	EASVREE	QQYHRLPLS	GP_Gibbs	3.0 nM	6/6	0/18
KFGQSVLMGSYVRNSVA	QMSTREN	QQYDRLPLS	En_HC	7.5 nM	6/6	0/18
KLQNFSQEDNKMWNNIA	DTTMVHT	QQYMTLPLM	En_Gibbs	3.9 nM	6/6	0/18
TIGQSTLMESENRNNVA	QMSTREK	QQYDRLPLS	En_HC	15 nM	6/6	0/18
KVSPSWLYEDRNCNSVA	QASCRES	QQYHRLPLS	GP_Gibbs	5.1 nM	6/6	1/18
KLQQGVLMESRNKNSVA	NAGKREE	QQYHRLPLS	GP_Gibbs	640 pM	6/6	0/18
KVSEFMKGLMMRTDSIA	DNETREN	QQYDRLPLS	En_Gen	100 nM	5/6	0/18
KLQQAELGESRNKNSVA	SADTRES	QQYHRLPLS	GP_Gibbs	no signal	0/6	0/18
KISQMVRVGSTHSSSIA	EEQTRAK	QQYHRLPLS	En_Gen	560 pM	1/6	0/18
NLNDSEMQMPQDTSNIA	QTTLRNL	QQYAKLPLS	En_Gibbs	1.8 nM	6/6	0/18
VLQQSVCMESRNKNSVA	NASKREE	QQYHRLPLS	GP_Gibbs	25 nM	6/6	0/18
KISQTFNVGTKNKNSLA	EMSTREG	QDYHRLPLS	En_HC	8.4 nM	1/6	0/18
ALRGVGYDEQVKHSAIA	DGEHLNN	QQYSMLPLS	En_Gibbs	2.4 nM	6/6	0/18
KLAQGIYEPVRKSHNIA	EASHVCD	QQYERLPLE	En_Gibbs	1.5 nM	6/6	1/18
HVSEMIFAQSKARNSVA	ENSTREA	QQYDRLPLS	En_HC	300 nM	2/6	0/18
KIYQLGLGSQKINNNIA	QTSIREL	QSYNRLPLS	En_Gibbs	6.1 nM	6/6	2/18
KQSQSGMMESRNQNSVA	QASTRLS	QQYHRLPLS	GP_Gibbs	2.1 nM	6/6	0/18
IVSQLMLWGLHYKNSIA	EAVTRLN	QQYDRLPLF	En_Gen	no signal	0/6	0/18
NLAMALDQGILIKNNIA	SDNLREN	QQYERLPLI	En_Gibbs	17 nM	6/6	1/18
TLDLRTSYGNGLNKAIA	DVSIKDY	QQYARLPLL	En_Gibbs	1.9 nM	6/6	1/18
KLMQEVLYESRLANSVA	NASTRLE	QQYHRLPLS	GP_Gibbs	3.1 nM	6/6	4/18
HVSPSVPYESRNKNSVA	NASTREE	QDYHRLPLS	GP_HC	370 pM	6/6	0/18
HMSMLTLGGMRMRNSVA	QMTTREN	QQYDRLPLA	En_Gen	no signal	0/6	0/18
KLSVSWQFESIEHNSVA	ERSTRES	QDYNRLPLS	En_HC	34 nM	6/6	2/18
KIGMTLNMMMHKKNNVA	DLVMREQ	QQYHRLPLS	En_Gen	1.3 nM	6/6	0/18
KLYQSTAMLSRMKNNVA	DLNERER	QQYFRLPLS	En_HC	3.0 nM	6/6	0/18
KLSQSMEYESRNKNSVA	NASTREE	GQYHRLPLT	GP_Gibbs	12 nM	5/6	0/18
IVSQLMLWGYHAKNSIA	EAETRPN	QQYDRLPLE	En_Gen	no signal	0/6	0/18
KLSQQDEYQSRNKNSVA	NASTRYS	QQYHRLPLS	GP_Gibbs	250 pM	6/6	0/18
KSSPSQLYEDRMDNSVA	NASQRES	QQYHRLPLS	GP_Gibbs	1.8 nM	6/6	0/18
NFSEQQKTDREQQYSIA	GMDIREK	QQYGRLPLT	En_Gibbs	300 nM	3/6	0/18
MISQMYNMGQFAINSVA	QASIRNS	QQYDRLPLI	En_Gen	36 nM	6/6	2/18
HITMGMYVMGRHHSSIA	QAETRAK	QQYDRLPLI	En_Gen	no signal	0/6	0/18
TISMSMNWLTRNKNNIA	EESTRED	QQYDRLPLS	En_HC	13 nM	5/6	0/18
IISDLTMYGSRNVNSVA	DLSTRGS	QQYHRLPLS	En_HC	1.9 nM	6/6	1/18
TIGGTLMYGVRNRSNVA	EVSQRLN	QQYDRLPLF	En_Gen	3.3 nM	6/6	1/18
KSSQSVYYEDGNGNSVA	HASVRED	QQYHRLPLM	GP_Gibbs	760 pM	6/6	1/18
NVGQQMDGESRNKNSVA	HQSTRED	QHYHRLPLS	En_HC	3.3 nM	6/6	0/18
MMSQVTTSGTRHRNNVA	QTSMRET	QQYDRLPLI	En_Gen	2.7 nM	6/6	0/18
KVSSFMRGLMMRKDSIA	DNETRQS	QQYDRLPLS	En_Gen	28 nM	6/6	1/18
KLQQVTGYEMYVRNSVA	QMSTRAE	QDYNRLPLS	En_HC	3.9 nM	6/6	1/18
NLKENNVDNQTFYSNIA	EADIREL	QQYYRLPLQ	En_Gibbs	35 nM	2/6	0/18
MISQLFNMGQFAINSVA	QASTRCE	QQYDRLPLM	En_Gen	89 nM	5/6	1/18
MISDTGIHDSRMQNSVA	NNSTRES	QQYHRLPLS	En_HC	39 nM	6/6	3/18
IVSQLMLWGMHHKNSIA	EAQTKLN	QQYERLPLF	En_Gen	no signal	0/6	0/18
HISQMWMLESRNINNVA	EESTRED	QSYFRLPLS	En_HC	3.6 nM	6/6	0/18
MLSQMTGWGMKASNSVA	QASTRFT	QQYHRLPLI	En_Gen	120 nM	5/6	1/18
HVSEMIFAQMKMRNSVA	ENNTREA	QQYDRLPLS	En_HC	180 nM	2/6	1/18
KISQMVRVGSTHTNSIA	EEATRAK	QQYHRLPLF	En_Gen	6.3 nM	6/6	0/18
IISGSMLMESRNKNSVA	NAETREY	QHYDRLPLS	En_HC	36 nM	6/6	0/18
RLTEHTSERAYADASVA	NASTRND	QQYHRLPLF	En_Gibbs	9.8 nM	6/6	1/18

From the list, the first 6 with no signal in any replicate:

CDR-L1	CDR-L2	CDR-L3	group	apparent Kd	replicates with signal	empty controls
KWSWSWLLESRVWNSVA	NASLRES	QQYHRLPLS	GP_Gibbs	no signal	0/6	0/18
KLSQSVRMEEFVKDNVA	ENSTREA	QDYHRLPLS	En_HC	no signal	0/6	0/18
KLQQAELGESRNKNSVA	SADTRES	QQYHRLPLS	GP_Gibbs	no signal	0/6	0/18
IVSQLMLWGLHYKNSIA	EAVTRLN	QQYDRLPLF	En_Gen	no signal	0/6	0/18
HMSMLTLGGMRMRNSVA	QMTTREN	QQYDRLPLA	En_Gen	no signal	0/6	0/18
IVSQLMLWGYHAKNSIA	EAETRPN	QQYDRLPLE	En_Gen	no signal	0/6	0/18